Results taken from article PMC8187744, “PRMT5-mediated arginine methylation activates AKT kinase to govern tumorigenesis” (Nature Communications, 2021).

Target: T1, PRMT5/MEP50 bound to Myc beads
T1 construct: PRMT5; Myc-PRMT5 cloned into the pRK5-myc vector; MEP50; Myc-MEP50 cloned into the pRK5-myc vector; Flag-MEP50 was cloned too
Test: pull-down; in vitro binding: recombinant GST-AKT1 purified from mammalian cells incubated with Myc beads bound with PRMT5/MEP50, 4 °C for 4 h, with or without PIP3 (20 uM)
Details: both partners purified

B1: GST-AKT1 (natural protein, human, UniProt P31749 1-480, looked up)
chain: MSDVAIVKEGWLHKRGEYIKTWRPRYFLLKNDGTFIGYKERPQDVDQREAPLNNFSVAQCQLMKTERPRPNTFIIRCLQWTTVIERTFHVETPEEREEWTTAIQTVADGLKKQEEEEMDFRSGSPSDNSGAEEMEVSLAKPKHRVTMNEFEYLKLLGKGTFGKVILVKEKATGRYYAMKILKKEVIVAKDEVAHTLTENRVLQNSRHPFLTALKYSFQTHDRLCFVMEYANGGELFFHLSRERVFSEDRARFYGAEIVSALDYLHSEKNVVYRDLKLENLMLDKDGHIKITDFGLCKEGIKDGATMKTFCGTPEYLAPEVLEDNDYGRAVDWWGLGVVMYEMMCGRLPFYNQDHEKLFELILMEEIRFPRTLGPEAKSLLSGLLKKDPKQRLGGGSEDAKEIMQHRFFAGIVWQHVYEKKLSPPFKPQVTSETDTRYFDEEFTAQMITITPPDQDDSMECVDSERRPHFPQFSYSASGTA
notes: AKT1, CMV-GST-AKT1 in the mammalian expression pCMV-GST vector; also called AKT1-WT; recombinant GST-AKT1 protein; source: purified from mammalian cells
B1: binds.
